# Read-outs that look alike come from different tables or passages of the source.
# Test system: mouse colon carcinoma cell CT26
substance,measurement,setting,value
bleomycin HCl,degree of viable cells in percentage relative to the medium group (=100%),bleomycin 500 ng/DMEM 500 μl/well,89.4%
same,degree of viable cells in percentage relative to the medium group (=100%),bleomycin 5 μg/DMEM 500 μl/well,74.8%
same,degree of viable cells in percentage relative to the medium group (=100%),bleomycin 50 μg/DMEM 500 μl/well,33.9%

# Source: patent US20060165656A1, “Medicinal preparation having chemotherapeutic encapsulated therein” (priority 2002, published 2006)
